Data: patent US12583836B2 (Anaxis Pharma Pty Ltd, priority 2020, dated 2026)

By UniProt entry, the sequences of proteins in these tests, tags left out.
UniProt Q13546, whole entry: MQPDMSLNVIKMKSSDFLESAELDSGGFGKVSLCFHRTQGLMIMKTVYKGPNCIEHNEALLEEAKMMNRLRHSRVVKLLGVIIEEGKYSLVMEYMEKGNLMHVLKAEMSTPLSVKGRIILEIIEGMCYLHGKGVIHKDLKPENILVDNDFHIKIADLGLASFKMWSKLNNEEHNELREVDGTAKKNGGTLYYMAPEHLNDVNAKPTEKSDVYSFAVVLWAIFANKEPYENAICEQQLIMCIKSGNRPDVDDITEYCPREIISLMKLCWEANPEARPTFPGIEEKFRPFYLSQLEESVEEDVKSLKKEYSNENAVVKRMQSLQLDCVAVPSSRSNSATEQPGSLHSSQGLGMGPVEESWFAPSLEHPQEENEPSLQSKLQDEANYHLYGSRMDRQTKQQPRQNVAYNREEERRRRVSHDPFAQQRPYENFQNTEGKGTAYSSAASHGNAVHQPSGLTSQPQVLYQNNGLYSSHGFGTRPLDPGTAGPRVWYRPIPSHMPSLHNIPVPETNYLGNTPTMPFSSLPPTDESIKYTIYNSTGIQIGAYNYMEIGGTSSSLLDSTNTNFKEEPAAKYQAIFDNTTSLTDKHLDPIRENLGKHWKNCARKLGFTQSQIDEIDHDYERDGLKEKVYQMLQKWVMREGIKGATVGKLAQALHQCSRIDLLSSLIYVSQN
UniProt Q9Y572, whole entry: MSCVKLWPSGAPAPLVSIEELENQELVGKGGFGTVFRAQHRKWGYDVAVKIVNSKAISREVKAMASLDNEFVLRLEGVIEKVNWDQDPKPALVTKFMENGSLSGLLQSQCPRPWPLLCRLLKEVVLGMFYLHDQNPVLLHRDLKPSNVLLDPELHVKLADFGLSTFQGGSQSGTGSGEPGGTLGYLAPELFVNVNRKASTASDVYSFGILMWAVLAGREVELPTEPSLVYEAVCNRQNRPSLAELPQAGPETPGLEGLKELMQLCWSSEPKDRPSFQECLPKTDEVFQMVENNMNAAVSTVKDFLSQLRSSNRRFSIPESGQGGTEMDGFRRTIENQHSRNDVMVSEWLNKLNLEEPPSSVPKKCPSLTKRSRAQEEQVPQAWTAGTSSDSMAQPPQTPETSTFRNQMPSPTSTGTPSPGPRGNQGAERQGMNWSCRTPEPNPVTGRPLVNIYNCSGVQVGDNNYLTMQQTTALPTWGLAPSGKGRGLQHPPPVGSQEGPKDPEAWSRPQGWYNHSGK
UniProt Q8NB16, whole entry: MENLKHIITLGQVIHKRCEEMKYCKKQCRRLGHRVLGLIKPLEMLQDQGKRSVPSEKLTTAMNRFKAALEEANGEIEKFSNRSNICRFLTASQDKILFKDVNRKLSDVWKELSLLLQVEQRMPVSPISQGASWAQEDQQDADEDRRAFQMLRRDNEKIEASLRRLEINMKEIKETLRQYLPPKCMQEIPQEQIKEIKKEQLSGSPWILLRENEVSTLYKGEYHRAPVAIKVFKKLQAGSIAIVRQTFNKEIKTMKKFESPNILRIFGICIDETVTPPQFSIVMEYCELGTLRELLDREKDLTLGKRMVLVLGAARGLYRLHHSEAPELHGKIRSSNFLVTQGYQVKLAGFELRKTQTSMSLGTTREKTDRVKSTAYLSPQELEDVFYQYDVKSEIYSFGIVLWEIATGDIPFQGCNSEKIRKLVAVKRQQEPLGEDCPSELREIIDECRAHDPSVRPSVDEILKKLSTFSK

Tests used:
RIP1 = RIP1 (Homo sapiens, UniProt Q13546); test: KINOMEscan binding assay, RIP1; settings: read-out: RIP1 (KD), equilibrium dissociation constant, class symbols
RIP3 = RIP3 (Homo sapiens, UniProt Q9Y572); test: KINOMEscan binding assay, RIP3; settings: read-out: RIP3 (KD), equilibrium dissociation constant, class symbols
MLKL (full length) = MLKL (full length) (Homo sapiens, UniProt Q8NB16); test: KINOMEscan binding assay, MLKL; settings: read-out: MLKL (KD), equilibrium dissociation constant, class symbols

Kd (RIP1) | Kd (RIP3) | Kd (MLKL (full length)) | Structure (SMILES)
> 30 µM | > 30 µM |  | CCS(=O)(=O)Nc1ccc(-c2n[nH]c(Nc3cc(C(F)(F)F)ccn3)c2C(N)=O)cc1OCc1ccc(F)cc1
> 30 µM | > 30 µM | < 0.01 µM | COC[C@@H](Oc1cc(-c2n[nH]c(Nc3cc(C)on3)c2C(N)=O)ccc1NS(=O)(=O)C(F)F)c1ccc(F)cc1
